The record followed here is US20240002326A1, “COMPOUNDS AND USE THEREOF IN METHODS OF TREATMENT” (The University of Queensland, priority 2016, published 2024).

Chains of the proteins cited; added tags and fusions are not shown.
UniProt Q9BT81, whole entry: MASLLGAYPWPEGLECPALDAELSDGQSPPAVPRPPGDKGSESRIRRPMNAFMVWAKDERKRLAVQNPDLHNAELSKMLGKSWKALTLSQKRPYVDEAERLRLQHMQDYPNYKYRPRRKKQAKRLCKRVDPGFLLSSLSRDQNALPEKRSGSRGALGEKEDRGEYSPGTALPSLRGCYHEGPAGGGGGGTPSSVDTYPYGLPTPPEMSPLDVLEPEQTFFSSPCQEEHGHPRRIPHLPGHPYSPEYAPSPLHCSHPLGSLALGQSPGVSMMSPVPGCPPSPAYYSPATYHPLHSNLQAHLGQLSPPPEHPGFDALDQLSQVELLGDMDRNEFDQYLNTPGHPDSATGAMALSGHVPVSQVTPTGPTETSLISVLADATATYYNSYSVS
UniProt P35713, whole entry: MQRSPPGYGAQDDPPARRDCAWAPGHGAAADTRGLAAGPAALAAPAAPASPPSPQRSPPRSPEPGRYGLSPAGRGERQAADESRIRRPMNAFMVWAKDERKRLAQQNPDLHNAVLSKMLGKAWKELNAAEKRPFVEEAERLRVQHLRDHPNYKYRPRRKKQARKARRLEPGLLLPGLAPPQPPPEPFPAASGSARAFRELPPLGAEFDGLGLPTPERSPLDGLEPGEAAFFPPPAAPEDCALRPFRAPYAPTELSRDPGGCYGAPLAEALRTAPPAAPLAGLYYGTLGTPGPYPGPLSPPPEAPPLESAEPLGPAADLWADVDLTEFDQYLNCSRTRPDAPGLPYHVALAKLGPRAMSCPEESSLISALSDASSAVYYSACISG

The target of one series is SOX7-RBPJ (Homo sapiens (Human), UniProt Q9BT81). The series is described as follows: ALPHA-Screen SOX7-RBPJ interaction. The format is binding. To be noted: 50 uM Sm4. An excerpt:
(§1) The genetically encoded tags used here are enhanced GFP (GFP), mCherry (Cherry) and cMyc (myc). The proteins were cloned into the following cell free expression Gateway destination vectors respectively: N-terminal GFP tagged (pCellFree_G03), N-terminal Cherry-cMyc (pCellFree_G07) and C-terminal Cherry-cMyc tagged (pCellFree_G08) (Gagoski et al. 2015). The Open Reading Frames (ORFs) corresponding to the human SOX7 (BC071947), SOX17, RBPJ (BC020780) and MEF2C (BC026341) were sourced from the Human ORFeome collection version 1.1 and 5.1 or the Human Orfeome collaboration OCAA collection (Open Biosystems) as previously described and cloned at the ARVEC facility, UQ Diamantina Institute. […]
(§2) The ALPHA-Screen Assay was performed as previously described (Sierecki et al. 2014), using the cMyc detection kit and Proxiplate-384 Plus plates (PerkinElmer). A serial dilution of each sample was measured. […] The ALPHA-Screen signal was obtained on an Envision Multilabel Plate Reader (PerkinElmer), using the manufacturer's recommended settings (excitation: 680/30 nm for 0.18 s, emission: 570/100 nm after 37 ms). […] The Binding Index was calculated as: BI=[(I−I_neg)/(I_ref−I_neg)]×100
(§3) For PPI disruption assay, protein pairs expressed in LTE were incubated for 1 h with 100 μM Sm4 or DMSO alone (0.7% DMSO final). 100 μM Sm4 or DMSO was also added to buffer B. PPI disruption was calculated as: (1−I_Sm4/I_DMSO)×100.
For orientation: Bead proximity is the source of the signal in Alpha formats.

Series [1] deals with 4T1.2 mammary carcinoma cells. Nature of the series: 4T1.2 mammary carcinoma mouse model of breast cancer metastasis. In kind it is in vivo, BALB/c mice.
The test system of series [2] is SOX binding site consensus DNA. Nature of the series: Direct DNA-binding assay (SPR), consensus DNA. The note with it: biotinylated double-strand DNA on streptavidin chip. The method, then:
Compounds were tested at a 1% v/v DMSO in HBS-EP buffer (10 mM HEPES, 150 mM NaCl, 3 mM EDTA, 0.005% v/v polysorbate 20, pH 7.4). The same buffer supplemented with 1% v/v DMSO was used as a mobile phase. DNA minor groove binder DAPI (4′,6-diamidino-2-phenylindole), DNA intercalator and minor groove binder actinomycin D, and DNA intercalator ethidium bromide were used as positive controls. Biotinylated (one tag per probe) double strand DNA probes were prepared using a standard annealing routine (5 min at 100° C., room temperature overnight and stored at −20° C.) of single strand anti-parallel DNA Probes purchased from Geneworks and were immobilized on CM5-SA streptavidin chips as per manufacturer's recommendations. […] All sample and control cycles were performed in triplicate. DMSO calibration was performed as per manufacturer's recommendations. After each injection, an extra flow system wash was performed with 50% v/v DMSO to avoid carryover. Experiments were run on a Biacore T200 (GE Healthcare, USA), with one flow cell kept as a reference.
From a molecular viewpoint, an inhibitor of SOX18-DNA binding could act either by interacting directly with the DNA, or the protein, or at the interface between protein and DNA. […]

The next series concerns the target SOX7-SOX18 (Homo sapiens (Human), UniProt P35713). Nature of the series: ALPHA-Screen SOX7-SOX18 interaction. The format is binding. The note with it: 50 uM Sm4.
Excerpt: as §1, §2, §3

As to `O=C(O)c1c(O)cccc1CCc1ccc2ccccc2c1`, on SOX7-RBPJ, the SOX7-RBPJ interaction disruption result was “at least partially disrupted”. For the same compound, in series [1] (25 mg/kg/day), the “decrease in the number of endothelial cells (ERG) in tumors” value is recorded as 48%, the “decrease in the volume of the blood vessels (EMCN) in tumors” value is 55%, the “reduction of density of tumor associated lymphatic vessels (PDPN)” value amounted to 65% and the “reduction of number of lymphatic endothelial cells (PROX1)” value is 70%. Moreover, the “size of the primary tumor” value in series [1] (25 mg/kg/day) is given as “unchanged”. Also, in series [1] (25 mg/kg/day oral, day 3 to day 12), the “median latency (survival)” value was 44 days. Besides, the “median latency (survival), dose response” value in series [1] (50 mg/kg Sm4, vehicle 40 days) is 73 days. Moreover, in series [1] (day 28 after tumor inoculation, 25 mg/kg/day), the “reduction in the mean number of lung metastases” value is 67%. In addition, the “binding to consensus DNA (SPR)” value in series [2] is “do not bind”. The SOX7-SOX18 interaction disruption entry on SOX7-SOX18 is on record as “at least partially disrupted”.
